Laboratory results: patent publication US20240294551A1 (AMGEN INC., priority 2022, published 2024)

By UniProt entry, the sequences of proteins in these tests, tags left out. Chains listed by the source or under a name are the forms on record and can include a tag or linker. Residues count along the entry.
UniProt P01116, 1-164 with tags or gaps G12D limits assumed: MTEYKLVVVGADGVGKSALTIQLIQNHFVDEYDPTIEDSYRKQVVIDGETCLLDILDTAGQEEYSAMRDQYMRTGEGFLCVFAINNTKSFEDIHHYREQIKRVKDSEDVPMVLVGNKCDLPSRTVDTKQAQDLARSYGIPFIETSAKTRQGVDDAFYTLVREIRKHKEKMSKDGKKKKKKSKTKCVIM
UniProt P01116, 1-164 with tags or gaps C118A/G12D limits assumed: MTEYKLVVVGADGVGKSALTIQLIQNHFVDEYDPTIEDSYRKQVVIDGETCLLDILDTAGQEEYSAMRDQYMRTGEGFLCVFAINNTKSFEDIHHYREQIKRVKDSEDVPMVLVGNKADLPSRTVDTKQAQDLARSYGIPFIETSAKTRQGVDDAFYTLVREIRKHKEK

Tests used:
[1] = biological target: GDP-bound KRAS protein (aa 1-169), containing both G12D and C118A amino acid substitutions (Homo sapiens (Human), UniProt P01116, C118A/G12D); assay: KRAS G12D Coupled Nucleotide Exchange Assay; format: biochemical; conditions: read-out: KRAS G12D Coupled Exchange IC50
Method: KRAS G12D Coupled Nucleotide Exchange Assay
Following compound pre-incubation, purified SOS protein (aa 564-1049) and GTP (Roche 10106399001) were added to the assay wells and incubated for an additional 30 min. To determine the extent of inhibition of SOS-mediated nucleotide exchange, purified GST-tagged cRAF (aa 1-149), nickel chelate AlphaLISA acceptor beads (PerkinElmer AL108R), and AlphaScreen glutathione donor beads (PerkinElmer 6765302) were added to the assay wells and incubated for 10 minutes. The assay plates were then read on a PerkinElmer EnVision Multilabel Reader, using AlphaScreen® technology, and data were analyzed using a 4-parameter logistic model to calculate IC50 values.

[2] = biological target: His-tagged KRAS G12D protein (Homo sapiens (Human), UniProt P01116, G12D); assay: KRAS G12D TR-FRET Assay; conditions: read-out: KRAS G12D Binding IC50
Method: Compounds of interest were prepared in a dose-response titration in DMSO, and 80 nL were added via Labcyte Echo to each well of a 384-well plate (Perkin Elmer 6008280). The His-tagged KRAS G12D protein (Amgen) was diluted to 20 nM in Assay Buffer (20 mM HEPES, pH 7.4, 10 mM MgCl2, 50 mM NaCl, 0.1% BSA, 0.01% Tween-20, 10 μM GDP) and 2 μL was added to the appropriate wells of the 384-well plate. The plate was incubated for 30 minutes at room temperature. Biotinylated KRPep-2d substrate (Amgen) was diluted to 20 nM in Assay Buffer and 2 μL was added to all wells and incubated for 1 hour at room temperature. Detection Reagent (0.4 nM LANCE Eu-W1024 Anti-6×His (Perkin Elmer AD0401), 5 nM streptavidin-d2 (Cisbio 610SADLA)) was prepared in Assay Buffer, then 4 μL was added to the plate and incubated for 1 hour at room temperature. Plates were read using PerkinElmer EnVision (ex: 320 nm, em1: 665 nm, em2: 615 nm) and em1/em2 data was used to generate curve fits using a 4-parameter logistic model to calculate IC50 values.

AsPC-1 cells = assay: AsPC-1 CTG Assay (CellTiter-Glo cell viability); conditions: read-out: G12D/C/V Cell Proliferation CTG (72 h) AsPC-1; AsPC-1, 72 h; first value of the cell
Method: AsPC-1 and SW620 CTG Assay Protocols
AsPC-1 (human pancreatic adenocarcinoma; ATCC CRL-1682) or SW620 (human colon adenocarcinoma; ATCC CCL-227) cells were cultured in RPMI 1640 medium containing 10% fetal bovine serum and 1× penicillin/streptomycin/L-glutamine. Cells were seeded in 384-well plates at a density of 3.33E+04 cells/mL and incubated at 37° C., 5% CO2, overnight. Serially-diluted compound or DMSO was added to the cells, and plates were incubated at 37° C., 5% CO2 for 72 h. Cell viability was measured using a CellTiter-Glo® Luminescent Cell Viability Assay kit (Promega) according to the manufacturer's protocol. The luminescence signal of treated samples was normalized to DMSO control, and data were analyzed using a 4-parameter logistic model to calculate IC50 values.

[3] = tested on: Phosphorylation of ERK1/2 in AsPC-1 cells; assay: Phospho-ERK1/2 MSD Assay; conditions: read-out: 2 h p-ERK (AsPC-1 cells), IC50
Method: AsPC-1 (ATCC® CRL-1682™) cells were cultured in RPMI 1640 Medium (ThermoFisher Scientific 11875093) containing 10% fetal bovine serum (ThermoFisher Scientific 16000044) and 1× penicillin-streptomycin-glutamine (ThermoFisher Scientific 10378016). Sixteen hours prior to compound treatment, AsPC-1 cells were seeded in 96-well cell culture plates at a density of 25,000 cells/well and incubated at 37° C., 5% CO2. A compound dose-response titration was diluted in growth media, added to appropriate wells of a cell culture plate, and then incubated at 37° C., 5% CO2 for 2 hours. Following compound treatment, cells were washed with ice-cold Dulbecco's phosphate-buffered saline, no Ca^2+ or Mg^2+ (ThermoFisher Scientific 14190144), and then lysed in RIPA buffer (50 mM Tris-HCl pH 7.5, 1% Igepal, 0.5% sodium deoxycholate, 150 mM NaCl, and 0.5% sodium dodecyl sulfate) containing protease inhibitors (Roche 4693132001) and phosphatase inhibitors (Roche 4906837001). Phosphorylation of ERK1/2 in compound-treated lysates was assayed using Phospho-ERK1/2 Whole Cell Lysate kits (Meso Scale Discovery K151DWD) according to the manufacturer's protocol. Assay plates were read on a Meso Scale Discovery Sector Imager 6000, and data were analyzed using a 4-parameter logistic model to calculate IC50 values.

SMILES | IC50 [1] [nM] | IC50 [2] [nM] | IC50 (AsPC-1 cells) [nM] | IC50 [3] [nM]
Cc1cc2[nH]ncc2c2c1C1CC1COC(=O)O[C@@H]1CCCN(C1)c1nc(OC[C@@]34CCCN3C[C@H](F)C4)nc3c(F)c-2ncc13 (single isomer, unassigned) [119] | 1860 | 2120 | – | –
O=C1OCC2CC2c2c(Cl)cc3[nH]ncc3c2-c2ncc3c(nc(OC[C@@]45CCCN4C[C@H](F)C5)nc3c2F)N2CCC[C@H](C2)O1 (single isomer, unassigned) [118] | 4 | 7 | 630 | 110
Cc1cc2[nH]ncc2c2c1C1CC1COC(=O)O[C@@H]1CCCN(C1)c1nc(OC[C@@]34CCCN3C[C@H](F)C4)nc3c(F)c-2ncc13 (single isomer, unassigned) [120] | 8 | 10 | – | 229
O=C1OCC2CC2c2c(Cl)cc3[nH]ncc3c2-c2ncc3c(nc(OC[C@@]45CCCN4C[C@H](F)C5)nc3c2F)N2CCC[C@H](C2)O1 (single isomer, unassigned) [117] | 413 | 569 | – | –
